Experiments:
[1] = biological target: native CD30 on KARPAS 299 cells (Homo sapiens (KARPAS 299), UniProt P28908); test: flow cytometry on cells; antibody on KARPAS 299 cells (native CD30), 30 min on ice; detected with anti-human IgG Fcγ-PE; conditions: one partner purified
[2] = biological target: T1, CD30 on CD30-stably expressed NF-κB reporter Ramos-Blue cells (human, UniProt P28908-1); test: flow cytometry on cells; antibody in dilution series on CD30-stably expressing Ramos-Blue (CD30-RB) cells, 30 min on ice; detected with anti-human IgG Fcγ-PE; conditions: one partner purified
T1 construct: human CD30 (TNFRSF8), full length, on transfected Ramos-Blue cells; also called CD30-Ramos-Blue; CD30-RB; source: Ramos-Blue cells stably transfected (pcDNA6-derived plasmid, blasticidin selection), on cells

Sequences of proteins named here, by UniProt entry; tags and fusion partners are left off. Residues count along the entry.
UniProt P28908, 19-595: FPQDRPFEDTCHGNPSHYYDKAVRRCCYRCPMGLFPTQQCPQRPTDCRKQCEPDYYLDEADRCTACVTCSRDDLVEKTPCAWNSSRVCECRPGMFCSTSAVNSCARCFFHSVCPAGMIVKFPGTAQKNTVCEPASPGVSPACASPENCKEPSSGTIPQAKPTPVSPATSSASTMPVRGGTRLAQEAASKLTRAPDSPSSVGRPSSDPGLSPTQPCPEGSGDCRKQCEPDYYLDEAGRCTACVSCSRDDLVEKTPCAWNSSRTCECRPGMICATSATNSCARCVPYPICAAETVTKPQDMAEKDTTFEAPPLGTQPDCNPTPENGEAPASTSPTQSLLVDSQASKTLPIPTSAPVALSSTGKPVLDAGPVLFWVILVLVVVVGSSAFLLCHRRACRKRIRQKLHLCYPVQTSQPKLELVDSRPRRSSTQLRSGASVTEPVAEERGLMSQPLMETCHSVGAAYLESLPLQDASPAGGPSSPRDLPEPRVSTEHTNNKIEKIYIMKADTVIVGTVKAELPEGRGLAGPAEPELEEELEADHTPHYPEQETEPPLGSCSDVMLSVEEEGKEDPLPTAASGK

| Binder | binding result [1] | binding result [2] |
| --- | --- | --- |
| T104 cAb (antibody, V domains shown) VH: QIQLVQSGPELKKPGETVKISCKASGYTFTDYSMHWVKQAPGKGLKWMGWINTETGEPTYADDFKGRFAFSLETSASTAYLQINNLKNEDTATYFCTEGYVFDFWGQGTTLTVSS VL: DILLTQSPAILSVSPGERVSFSCRASRSIGTSIHWYQQRTNGSPRLLINYASESISGIPSRFSGSGSGTDFTLSINSVESEDIADYYCQQSNSWPLTFGAGTKLELK | binds | binds |
| T6 cAb (antibody, V domains shown) VH: QVQLKESGPGLVTPSQSLSITCTVSGFSLSKYSIHWVRQPPGRGLEWLGMIWGVENTDYNSALKSRLSISKDNSKSQVFLKMNSLQSDDTAMYYCARKDLGLYGMNYWGQGISVTVSA VL: DIVMTQSQKFMSTSVGDRVSVTCKASQNVGTNVAWYQQKPGQSPKALFYSASYRYSGVPDRFIGSGSGTVFTLTISNVQSEDLAEYFCQQYNTYPLTFGSGTKLEIE | binds | binds |
| T107 cAb (antibody, V domains shown) VH: QVQLQQSGPELVRPGVSVKISCKGSGYSFPDYPLHWVKQSHAKSLEWIGIILTYSGNTNYNQNFKGKATMTVDTSSNTAYLELARLTSEDSAIYYCATFYYGYDGAFDYWGQGTTLTVSS VL: DIVMTQSPSSLTVTAGEKVTMSCKSSQSLLNSGNQKNYLTWYQQKPGQPPKLLIHWASTRESGVPDRFTGSGSGTDFILTITSVQAEDLAVYYCQNDYTYPLTFGGGTKLELK | binds | binds |
| T427 cAb (antibody, V domains shown) VH: QVQLQQPGTELVRPGASVKLSCKASGFSFTSYWMNWVKQRPGQGLEWIGMIHPSDSETRLNQKFKDRATLTVDKSSSTAYMQLSSPTSEDSAVYYCASEMDYYFAMDYWGQGTSVTVSS VL: DIVLTQSPTSLAVSLGQRATISCRASESVDSYGNSFMHWFQQKPGQPPKLLIYRASNLESGIPARFSGSGSWTDFTLTINPVEADDVATYYCQQSNEDPRTFGGGTKLEIK | binds | binds |
| T426 cAb (antibody, V domains shown) VH: EVQLQQSGAELVKPGASVKLSCTASGFNVKDTYVHWVKQRPEQGLEWIGRIDPANSDTKYDSKFQGKATTSADTSSNTAYLQLNSLTSEDTAVYYCASGTDDYYWYFDVWGAGTTVTVSS VL: DIVLTQSPASLAVSLGQRATISCRASKSVSTPAHTYMHWYQQKPGQPPKLLIYLASNLESGVPARFSGSGSGTDFTLNIHPVEVEDAATYYCQHSRVLPYTFGGGTKLEIK | binds | binds |
| AC10 cAb (antibody, V domains shown) VH: QIQLQQSGPEVVKPGASVKISCKASGYTFTDYYITWVKQKPGQGLEWIGWIYPGSGNTKYNEKFKGKATLTVDTSSSTAFMQLSSLTSEDTAVYFCANYGNYWFAYWGQGTQVTVSA VL: DIVLTQSPASLAVSLGQRATISCKASQSVDFDGDSYMNWYQQKPGQPPKVLIYAASNLESGIPARFSGSGSGTDFTLNIHPVEEEDAATYYCQQSNEDPWTFGGGTKLEIK | binds | binds |
| T105 cAb (antibody, V domains shown) VH: QVTLKESGPGILQPSQTLSLTCSFSGFSLSTSGMGVSWIRQPSGKDLEWLAHIYWDDDKRYNPSLKSRLTISKDTSSNQVFLKITSVDTADTATYYCARRADGLYFYLDVWGAGTTVTVSS VL: DIVMTQSQKFMSTSVGDRVSVTCKASQNVNTNVAWYQQKPGQSPEALIYSASYRYSGVPDRFTGSGSGTDFTLTISNVQSEDLAEYFCQQYNSYPLTFGSGTKLEIK | binds | binds |
| T25 cAb (antibody, V domains shown) VH: QVTLKESGPGILQPSQTLSLTCSFSGFSLNTSGVGVGWIRQPSGKGLEWLAHIWWDDDERYNPVLKSRLTISKDTSSNQVFLKIANVDTADSATYYCVRSMVAWFPYWGRGTLVTVSA VL: DIVMSQSPSSLAVSVGEKFTVNCKSSQSLLYSSNQKNFLAWYQQKPGQSPKLLIYWASTRESGVPDRFIGSGSGTDFTLTISSVKAEDLAVYYCQQHYRYPWTFGGGTKLEIK | binds | binds |
| T405 cAb (antibody, V domains shown) VH: QVQLQQIGAELVRPGASVKLSCKASGYTFNNYWINWVKQRPGQGLEWIGNIYPSDSRSNYNQKFKDKATLTVDKPSSTAYMQLSSPTSEDSAVYYCTLGSYWGQGTLVTVSA VL: not shown | binds | binds |

— article PMC11826918, “Generation of antagonistic biparatopic anti-CD30 antibody from an agonistic antibody by precise epitope determination and utilization of structural characteristics of CD30 molecule” (Antibody Therapeutics, 2025)
